Yeast UUG start: yeast start codon fidelity modulation. S. cerevisiae UUG-firefly luciferase reporter, luminescence/redox ratio. activity score, % at 18.7 µM. 0.13% of 350,000 active;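 active = replicate mean at a twofold rise or more, about +100% in these data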;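 also: firefly luciferase made from a UUG start codon reports start codon fidelity; reporter light over untreated wells divided by growth signal over untreated wells; some hits fall short of that in this replicate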
NRP1-CendR mod: modulators of CendR peptide binding to NRP-1, primary screen, biochemical, fluorescence polarization, uHTS. actives 0.85% (n = 360,000). Neuropilin-1 (Homo sapiens), O14786. FAM-RPARPAR peptide binding to NRP-1. inhibition, % at 25 µM;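 active means inhibition or corrected inhibition above about 18%, plus a signal ratio from 0.5 to 1.5, limit read from the data, passing the limit was not always enough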
MC4R antagonist: MC4R antagonists of cAMP signaling, primary screen, cell-based, TR-FRET, antagonist arm of biased-ligand search. Melanocortin receptor 4 (Homo sapiens), P32245. MC4R-expressing cells, MTII-stimulated cAMP, LANCE TR-FRET. inhibition, % at 6.5 µM. actives 0.48% (n = 360,000). AID 540295, 2011;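 active means inhibition above its plate's cutoff, the mean of tested wells on that plate plus 3 SD, cut at about 29% in these data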;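 further: 0% = Melanotan II alone and 100% = Melanotan II plus saturating MCL0020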
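Material: human MC4R-expressing U2OS cells. Probe or stimulus: Melanotan II challenge. Dosing: 6.5 µM single dose. Times: 30-min compound, 1-h challenge, 1-h detection, room temperature. Technique: TR-FRET with Eu-cAMP and labeled anti-cAMP, 671 nm. Replication: singlicate.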
ASAP1 inh: inhibitors of human ASAP1 ArfGAP activity, primary screen, biochemical, fluorescence polarization | AID 624377, 2012 | actives 0.19% (n = 360,000) | ASAP1-stimulated ARF1 GTP hydrolysis, GDP FP detection | Arf-GAP with SH3 domain, ANK repeat and PH domain-containing protein 1 (Homo sapiens), … | inhibition, % at 16.5 µM; in the data active means inhibition above about 25%;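 further: 0% = vehicle with enzyme and substrate and 100% = no enzyme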
MC4R barr agon: MC4R agonists recruiting beta-arrestin, primary screen, cell-based, luminescence, agonist arm of biased-ligand search; U2OS MC4R beta-arrestin complementation; percent of melanotan II response, DMSO zero; activation, % at 8.9 µM; actives 0.98% (n = 360,000); Melanocortin receptor 4 (Homo sapiens), P32245;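 active means activation above a per-plate cutoff, the mean activation of sample wells on that plate plus 3 SD, cut at about 8% in these data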
ARFGAP1 inh: inhibitors of rat ARFGAP1 GAP activity, primary screen, biochemical, fluorescence polarization, GDP tracer | Arfgap1-stimulated ARF1 GTP hydrolysis, GDP FP detection | actives 0.26% (n = 360,000) | ADP-ribosylation factor GTPase-activating protein 1 (Rattus norvegicus), Q62848 | inhibition, % at 16.5 µM;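 active means inhibition above a per-plate limit, mean inhibition of low control wells plus 3 SD, cut at about 25% in these data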;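 further: 0% = DMSO wells with enzyme and 100% = wells lacking Arfgap1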
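Replicates: Single well per compound | Assay system: Truncated rat Arfgap1 GAP domain | Control set: No-Arfgap1 wells (100%) versus DMSO full-reaction wells (0%) | Times: Enzyme reaction 120 min at 25 °C after 20 min preincubation | Reagent: Human ARF1(Δ1-17)-GTP substrate | Measured by: Tracer-displacement fluorescence polarization with EDTA stop, 620/688 nm | Measure: Percent inhibition of Arfgap1-stimulated GTP hydrolysis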
ARFGAP1 confirm: ARFGAP1 inhibitor hit confirmation, biochemical, fluorescence polarization, triplicate. inhibition, % at 16.5 µM. actives 30% (n = 890). AID 651608, 2012. ARFGAP1-stimulated ARF1 GTP hydrolysis, GDP tracer FP. shares compounds with ARFGAP1 inh;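 active means average inhibition over triplicates above the hit cutoff set in the earlier primary screen, cut at about 25% in these data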;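 further: 0% = Arfgap1 plus ARF1-GTP with DMSO and 100% = wells lacking Arfgap1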
* marks the source's active call; other numbers are inactive results; / = not tested or not shown. An excerpt weighted towards active compounds, which were near 2.3% of everything screened.

The chains behind the UniProt entries cited, without tags or fusion partners. Residues count along the entry.
Neuropilin-1 (Homo sapiens), O14786, UniProt O14786, whole entry, looked up: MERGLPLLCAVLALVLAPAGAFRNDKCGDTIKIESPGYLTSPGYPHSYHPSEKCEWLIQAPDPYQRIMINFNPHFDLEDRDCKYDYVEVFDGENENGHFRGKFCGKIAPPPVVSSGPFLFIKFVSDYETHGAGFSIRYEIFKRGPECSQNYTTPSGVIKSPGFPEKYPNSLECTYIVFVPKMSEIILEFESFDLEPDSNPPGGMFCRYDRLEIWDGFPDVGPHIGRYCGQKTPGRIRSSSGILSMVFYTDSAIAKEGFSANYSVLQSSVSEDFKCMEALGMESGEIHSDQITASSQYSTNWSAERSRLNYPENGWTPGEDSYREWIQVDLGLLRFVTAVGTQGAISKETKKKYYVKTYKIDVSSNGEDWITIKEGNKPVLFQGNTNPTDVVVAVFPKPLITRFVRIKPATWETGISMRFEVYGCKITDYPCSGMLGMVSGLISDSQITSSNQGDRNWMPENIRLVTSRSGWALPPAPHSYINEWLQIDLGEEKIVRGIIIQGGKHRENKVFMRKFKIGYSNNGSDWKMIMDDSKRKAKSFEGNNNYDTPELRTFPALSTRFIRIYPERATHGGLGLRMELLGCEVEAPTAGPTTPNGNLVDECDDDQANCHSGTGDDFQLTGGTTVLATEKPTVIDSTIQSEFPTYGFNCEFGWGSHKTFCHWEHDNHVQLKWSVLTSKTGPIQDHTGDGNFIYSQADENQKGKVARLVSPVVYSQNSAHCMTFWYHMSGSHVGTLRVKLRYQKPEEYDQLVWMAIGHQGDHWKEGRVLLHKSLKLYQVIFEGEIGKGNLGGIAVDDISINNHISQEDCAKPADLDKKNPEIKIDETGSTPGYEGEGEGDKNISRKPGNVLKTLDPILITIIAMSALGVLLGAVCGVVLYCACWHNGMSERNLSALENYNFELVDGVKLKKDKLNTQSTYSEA
Melanocortin receptor 4 (Homo sapiens), P32245, UniProt P32245, whole entry, looked up: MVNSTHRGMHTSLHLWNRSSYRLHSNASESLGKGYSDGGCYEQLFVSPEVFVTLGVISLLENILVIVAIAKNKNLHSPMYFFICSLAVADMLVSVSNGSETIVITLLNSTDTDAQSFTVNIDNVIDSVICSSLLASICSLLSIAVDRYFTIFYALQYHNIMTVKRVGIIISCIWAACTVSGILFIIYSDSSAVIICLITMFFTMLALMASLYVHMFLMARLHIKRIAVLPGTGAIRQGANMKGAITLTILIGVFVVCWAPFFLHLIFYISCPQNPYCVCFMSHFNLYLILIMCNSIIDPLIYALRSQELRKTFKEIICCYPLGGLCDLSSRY
ADP-ribosylation factor GTPase-activating protein 1 (Rattus norvegicus), Q62848, UniProt Q62848, 1-136 limits assumed: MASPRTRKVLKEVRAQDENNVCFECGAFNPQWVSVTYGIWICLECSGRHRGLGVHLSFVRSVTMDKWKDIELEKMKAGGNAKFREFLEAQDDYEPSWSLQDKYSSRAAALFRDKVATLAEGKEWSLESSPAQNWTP
ADP-ribosylation factor GTPase-activating protein 1 (Rattus norvegicus), Q62848, UniProt Q62848, whole entry, looked up: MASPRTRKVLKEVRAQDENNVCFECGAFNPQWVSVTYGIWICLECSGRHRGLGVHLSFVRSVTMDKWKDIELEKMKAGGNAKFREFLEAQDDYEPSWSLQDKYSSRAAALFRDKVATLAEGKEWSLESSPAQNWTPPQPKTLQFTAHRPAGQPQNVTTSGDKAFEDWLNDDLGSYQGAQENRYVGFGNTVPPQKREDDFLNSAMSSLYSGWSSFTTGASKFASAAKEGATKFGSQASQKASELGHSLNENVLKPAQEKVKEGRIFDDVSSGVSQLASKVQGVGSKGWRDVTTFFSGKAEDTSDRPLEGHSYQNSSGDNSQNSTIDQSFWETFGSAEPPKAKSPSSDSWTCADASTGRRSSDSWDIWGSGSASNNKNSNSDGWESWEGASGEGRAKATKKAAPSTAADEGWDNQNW

entry | Yeast UUG start | NRP1-CendR mod | MC4R barr agon | ARFGAP1 inh | ARFGAP1 confirm | ASAP1 inh | MC4R antagonist | SMILES
1 | -10 | -9 | 1 | 32* | 8 | -11 | 3 | COc1ccc(OCc2nnc(SCC(=O)c3ccccc3)o2)cc1
2 | -11 | 6 | -1 | 30* | 3 | 0 | -3 | O=C(CSc1nnc(COc2ccc(Cl)cc2)o1)NC1CC2CCC1C2 (stereo unspecified)
3 | -15 | -17 | 0 | 35* | 13 | -1 | 4 | COc1ccc(NC(=O)c2ccc3c(c2)C(=O)N(Cc2ccncc2)C3=O)cc1S(N)(=O)=O
4 | -77 | 11 | 1 | 29* | -7 | -2 | 8 | O=C(CCSc1nnc(-c2ccncc2)o1)Nc1ccccc1Cl
5 | / | 2 | -2 | 13 | / | 7 | 14 | COc1ccccc1NC(=O)CCSc1nnc(-c2ccncc2)o1
6 | -22 | 0 | -1 | 28* | 40* | 0 | -3 | C=CCNc1nc(NCCOC)c2sc(-c3ccccc3)cc2n1
7 | -9 | -34 | 0 | 46* | 9 | 8 | -5 | C=CCNc1nc(NCc2ccc(N(C)C)cc2)c2sc(-c3ccccc3)cc2n1
8 | -13 | 0 | -1 | 13 | / | 19 | 9 | C=CCNc1nc(NCCOc2ccccc2Cl)c2sc(-c3ccccc3)cc2n1
9 | -7 | / | / | / | / | / | / | O=C(C[C@H]1CC[C@H]2[C@@H](COC[C@@H](O)CN2C(=O)Nc2ccc(Cl)cc2)O1)NCc1ccncn1
10 | -24 | -8 | 0 | 3 | / | 4 | 0 | CCOC(=O)NC(NCC(O)c1ccccc1)(C(F)(F)F)C(F)(F)F (stereo unspecified)
11 | 0 | -2 | 0 | 31* | -6 | 5 | 12 | CCCCOC(=O)NC(NCC(O)c1ccccc1)(C(F)(F)F)C(F)(F)F (stereo unspecified)
12 | 1 | / | / | / | / | / | / | CCNC(=O)Nc1ccc2c(c1)C(=O)N(C)[C@@H]1CC[C@@H](CC(=O)NC3CCCCC3)O[C@@H]1CO2

Among those listed so far, 4 contain a Cl atom:
entry | Yeast UUG start | NRP1-CendR mod | MC4R barr agon | ARFGAP1 inh | ARFGAP1 confirm | ASAP1 inh | MC4R antagonist | SMILES
2 | -11 | 6 | -1 | 30* | 3 | 0 | -3 | O=C(CSc1nnc(COc2ccc(Cl)cc2)o1)NC1CC2CCC1C2 (stereo unspecified)
4 | -77 | 11 | 1 | 29* | -7 | -2 | 8 | O=C(CCSc1nnc(-c2ccncc2)o1)Nc1ccccc1Cl
8 | -13 | 0 | -1 | 13 | / | 19 | 9 | C=CCNc1nc(NCCOc2ccccc2Cl)c2sc(-c3ccccc3)cc2n1
9 | -7 | / | / | / | / | / | / | O=C(C[C@H]1CC[C@H]2[C@@H](COC[C@@H](O)CN2C(=O)Nc2ccc(Cl)cc2)O1)NCc1ccncn1

Additional entries.
entry | Yeast UUG start | NRP1-CendR mod | MC4R barr agon | ARFGAP1 inh | ARFGAP1 confirm | ASAP1 inh | MC4R antagonist | SMILES
13 | -3 | / | / | / | / | / | / | C[C@@H]1CCCCO[C@H](CN(C)C(=O)Nc2ccc(C(F)(F)F)cc2)[C@H](C)CN([C@@H](C)CO)C(=O)c2cc(NC(=O)c3ccncc3)ccc2O1
14 | -2 | 4 | -2 | 30* | -6 | -12 | 0 | Cc1ccc(C2(C)NC(=O)N(CC(=O)NC(=O)NC(C)C)C2=O)cc1 (stereo unspecified)
15 | -12 | 4 | 0 | 5 | / | -4 | 20 | Cc1ccc(C2(C)NC(=O)N(CC(=O)NC(C)c3ccccc3)C2=O)cc1 (stereo unspecified)
16 | 27 | / | / | / | / | / | / | C[C@H](O)C#Cc1cnc2c(c1)C(=O)N([C@H](C)CO)C[C@H](C)[C@H](CN(C)C(=O)CN1CCOCC1)O2
17 | / | -6 | / | 27* | 3 | 3 | / | CC[C@H](CO)Oc1cc(NCc2cccc(N)c2)c2ncn(C(C)C)c2c1
18 | / | 1 | 0 | 44* | 8 | -9 | 2 | COc1cc(/C=N/NC(=O)c2ccc(Cl)c(S(N)(=O)=O)c2)ccc1OCC(N)=O
19 | -8 | / | / | / | / | / | / | CC(=O)N(C)C[C@H]1Oc2ncc(C#CC(C)(C)O)cc2C(=O)N([C@@H](C)CO)C[C@@H]1C
20 | -18 | 8 | 2 | 26* | 0 | 3 | 0 | COC(=O)C1=C(C)OC(N)=C(C#N)C1C1CCCCC1 (stereo unspecified)
21 | / | -19 | -1 | 86* | 110* | 22 | -1 | O=C(/C=C/c1ccc(Cl)cc1)NC(=S)Nc1ccc(NC(=O)c2ccco2)cc1
22 | / | 11 | -4 | 0 | / | -9 | 2 | CC(=O)Nc1ccc(NC(=S)NC(=O)/C=C/c2ccc(Cl)cc2)cc1
23 | -7 | 1 | -1 | 42* | 45* | 29* | 3 | CCN1CCN(c2ccc(S(=O)(=O)N3CCCCC3)cc2NC(=O)/C=C/c2ccc([N+](=O)[O-])cc2)CC1
24 | 12 | -2 | -1 | 12 | / | 6 | 3 | CCN1CCN(c2ccc(S(=O)(=O)N3CCCCC3)cc2NC(=O)/C=C/c2ccc(F)cc2)CC1
25 | -5 | / | / | / | / | / | / | CO[C@@H]1CN(C)C(=O)c2ccc(NC(=O)C3CC3)cc2OC[C@H](C)N(C(=O)CN(C)C)C[C@H]1C
26 | 77 | 1 | -1 | 26* | 31* | 11 | 8 | COc1ccc(N/N=C/c2c(C(=O)O)ccc3ccccc23)cc1
27 | -15 | / | / | / | / | / | / | C[C@@H]1CN([C@H](C)CO)C(=O)Cc2cc(NC(=O)Nc3ccc(F)cc3)ccc2O[C@@H]1CN(C)Cc1ccncc1
28 | -13 | 0 | 0 | 26* | 47* | 18 | 13 | CCOc1ccc(/C=N/NC(=O)c2cc3c(OC)cc(OC)cc3[nH]2)cc1OC
29 | -9 | / | / | / | / | / | / | CN1C(=O)c2cc(NS(=O)(=O)c3ccccc3Cl)ccc2OC[C@H]2O[C@H](CC(=O)O)CC[C@@H]21
30 | 18 | / | / | / | / | / | / | CNC[C@H]1OCCCC[C@H](C)Oc2ccc(NS(=O)(=O)c3ccc(OC)cc3)cc2C(=O)N([C@@H](C)CO)C[C@@H]1C
31 | -12 | -4 | 0 | 25* | 3 | -13 | -2 | O=C(NCc1ccccc1)c1cc(C2CCCCN2C(=O)OCCF)on1 (stereo unspecified)
32 | -14 | -17 | 0 | 28* | 9 | 6 | -1 | COc1cccc(OC)c1C(=O)Nc1ccc(S(=O)(=O)Nc2ncccn2)cc1
33 | -8 | 2 | -2 | -9 | / | 5 | -1 | COc1cc(C(=O)Nc2ccc(S(=O)(=O)Nc3ncccn3)cc2)c([N+](=O)[O-])cc1OC
34 | -7 | / | / | / | / | / | / | C[C@H](NC(=O)C[C@@H]1CC[C@H]2[C@@H](COC[C@@H](O)CN2C(=O)Nc2ccccc2)O1)c1ccccc1
35 | 0 | 8 | -1 | 36* | 1 | 5 | 6 | CCCCCCCNC(=O)C1(CC2CC(c3cccc(Br)c3)=NO2)CCN(C(=O)OC(C)(C)C)CC1 (stereo unspecified)
36 | / | 13 | 0 | 25* | 10 | 15 | 6 | N#C/C(=C\c1ccc(Oc2ccc(C(F)(F)F)cc2[N+](=O)[O-])cc1)c1nc2ccccc2[nH]1
